Laboratory results: patent publication US4699928A, “Fluoroallylamine derivatives” (Merrell Dow Pharmaceuticals Inc., priority 1986, dated 1987)

Key:
MAO-A and MAO-B = settings: lower versus higher dosages; cited from earlier work
MAO = experiment: Inhibition of MAO in vitro, partially purified rat brain mitochondria, 14C p-tyramine substrate; format: biochemical; settings: tested as hydrochloride salt
Source text: Inhibition of MAO--In vitro testing
(A) The ability of a compound of Formula I to inhibit MAO can be determined in vitro by the method of A. Christmas et al., Br. J. Pharmacol., 45, 490 (1972) in partially purified mitochondria from rat brain using ^14 C p-tyramine as the substrate. The MAO inhibitory activity of a compound is expressed as the "IC50 " value, which is the molar concentration required to produce 50% inhibition of the enzyme.

MAO-B = settings: cited from earlier work

SMILES | dose-dependence of selectivity (MAO-A and MAO-B) | IC50 (MAO) [nM] | preferential inhibition of MAO-B (MAO-B)
C#CCN(C)CCCOc1ccc(Cl)cc1Cl [clorgyline, reference compound] | selective inhibitors at lower dosages, but are not selective inhibitors at higher dosages |  | 
C#CCN(C)[C@H](C)Cc1ccccc1 [L-deprenyl, reference compound] | selective inhibitors at lower dosages, but are not selective inhibitors at higher dosages | 100 | MAO-B is preferentially inhibited
